Ab-14 light chain CDR variants: yeast mating affinities

Source: Engelhart et al. 2022 (doi:10.1038/s41597-022-01779-4), MIT Lincoln Laboratory and A-Alpha Bio; data file from the FLAb repository.

Target: peptide PDVDLGDISGINAS, taken from heptad repeat 2 (HR2) of SARS-CoV-2 spike.

Each scFv is VH, the linker GGGGSGGGGSGGGGS, VL, as in the parent Ab-14, and differs from it in the CDRs of the light chain only.
VH: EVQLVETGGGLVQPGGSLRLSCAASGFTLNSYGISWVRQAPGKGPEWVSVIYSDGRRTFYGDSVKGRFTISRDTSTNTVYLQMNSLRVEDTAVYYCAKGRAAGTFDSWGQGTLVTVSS
VL: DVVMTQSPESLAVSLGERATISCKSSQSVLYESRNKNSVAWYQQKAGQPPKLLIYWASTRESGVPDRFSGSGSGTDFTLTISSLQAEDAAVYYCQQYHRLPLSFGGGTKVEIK

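The parent was found by panning a naive human phage display library on the peptide. Library AAYL50 holds single substitutions and randomly drawn double and triple substitutions in the CDRs. Affinity was read by AlphaSeq, a pooled yeast mating assay with surface-displayed partners. Binding brings cells together so that they mate, and sequencing counts the barcode pairs among the diploids. The ratio of observed to expected reads was calibrated, replicate by replicate, on BCL2-family standards whose Kd was known from biolayer interferometry. There are three technical replicates.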

Each variant is given by its three light chain CDRs, as the data file delimits them; those of the parent are KSSQSVLYESRNKNSVA, WASTRES, QQYHRLPLS.
Affinities are written as log10 Kd with Kd in nM; a lower number is a better binder.
Replicates are averaged; those with no signal do not enter the mean.
"n.d." means that the variant was in the library but no mating with the target was seen in that replicate; the authors take this as a sign of poor binding, and no number exists.
Background: pairings of library AAYL50 with three empty control strains gave a value in 18% of cases (median 4.19, 5th percentile 2.99). Values in that range, when seen in few replicates, are hard to tell from nonspecific mating. The control count says in how many pairings with the empty strains this scFv gave a signal, with their mean in brackets.

| CDR-L1 | CDR-L2 | CDR-L3 | replicates, log10 nM | mean log10 Kd (nM) | signal with controls |
|---|---|---|---|---|---|
| KSSQSVLYWSRNKNSVA | WASTRES | QQVLRLPLS | n.d. / n.d. / n.d. | n.d. | 0 of 9 |
| KSSQSVLYSSRNKNSVY | WASTRES | QQYHRLPLS | n.d. / 3.46 / n.d. | 3.46 | 1 of 9 (4.10) |
| KSSMSVLYESRNKNSVA | WASTRES | QQYLRLLLS | n.d. / n.d. / n.d. | n.d. | 0 of 9 |
| KSSQSVLYESRNKNIVA | WASTRKS | QQVHRLPLS | n.d. / n.d. / n.d. | n.d. | 1 of 9 (3.84) |
| KSSQSVLYPFRNKNSVA | WASTRES | QQYHREPLS | 0.62 / 0.58 / 0.44 | 0.55 | 1 of 9 (4.30) |
| KSSQSVLYESHNKNSVA | WASTRES | QQYHRLPLS | 0.51 / 0.98 / 1.05 | 0.85 | 0 of 9 |
| KSSQEVLYESRNKNSVI | WASTNES | QQYHRLPLS | n.d. / 3.58 / n.d. | 3.58 | 0 of 9 |
| KSSQSVLYESLWKNSVA | WASTRES | QQYHRAPLS | 2.49 / 2.37 / 1.62 | 2.16 | 1 of 9 (2.78) |
| KSSHSVLYESRNKNSVA | WASTREQ | QQYHRLPWS | 0.26 / 0.64 / 1.08 | 0.66 | 1 of 9 (3.07) |
| KSSQSVLYESRNKWSVA | WACTREW | QQYHRLPLS | n.d. / n.d. / n.d. | n.d. | 0 of 9 |
| KSSQSVLYEWRNKNSVA | WASTNES | QQAHRLPLS | 5.42 / n.d. / n.d. | 5.42 | 1 of 9 (3.40) |
| RSSQSVLYESRNKNSVA | WASTLAS | QQYHRLPLS | 0.74 / 0.94 / 0.86 | 0.85 | 2 of 9 (5.17) |
| KSSQFVLYESRNKNSVA | WASTRES | QQYHQLNLS | n.d. / n.d. / n.d. | n.d. | 1 of 9 (3.51) |
| KSSQSVLYESRNKNSVA | WLVTRES | QQYHRAPLS | n.d. / n.d. / n.d. | n.d. | 4 of 9 (4.02) |
| KSSQSVLYESSNKTSVE | WASTRES | QQYHRLPLS | n.d. / 3.49 / n.d. | 3.49 | 1 of 9 (5.16) |
| KSSQSVLYESRNKNSVA | WASTRGS | AQYHRLYLS | n.d. / n.d. / n.d. | n.d. | 1 of 9 (3.92) |
| KSSYSVLYESRNLNSVA | WASTRES | QQLHRLPLS | 1.62 / 1.75 / 1.77 | 1.71 | 4 of 9 (4.63) |
| KYSQSVLYESRNKNSVA | WRSTRES | QQYHMLPLS | 2.36 / n.d. / 1.51 | 1.93 | 0 of 9 |
| KSSQSVLYESRNSGSVA | WASTRES | QQYHRLPLS | 0.39 / 0.84 / 1.56 | 0.93 | 0 of 9 |
| KSSQSVLYESRNKYLVA | WASTRES | QQYARLPLS | 3.69 / 4.80 / n.d. | 4.25 | 3 of 9 (2.96) |
| KSAQSVLYESRNKNSVA | WASTREY | QQYHRLPLS | 0.94 / 1.12 / 1.06 | 1.04 | 1 of 9 (3.88) |
| KSSQSVLYEFRNKNSLA | WASTRES | QQYHRLPLE | 4.10 / 3.40 / n.d. | 3.75 | 4 of 9 (4.03) |
| KSSQSVLYEPRNKNSVA | WASTRES | QLYDRLPLS | 1.84 / 1.76 / 1.80 | 1.80 | 4 of 9 (4.05) |
| KTSQSVLYESRNDNSVA | GASTRES | QQYHRLPLS | 0.74 / 0.93 / 0.86 | 0.85 | 5 of 9 (4.33) |
| KSSFMVLYESRNQNSVA | WASTRES | QQYHRLPLS | n.d. / n.d. / n.d. | n.d. | 0 of 9 |
| KSSQSVLRWSRRKNSVA | WASTRES | QQYHRLPLS | n.d. / 2.54 / 5.94 | 4.24 | 2 of 9 (4.12) |
| KSSQSVLYESRNKNSVA | WASTRES | QPYHRLPCN | n.d. / n.d. / n.d. | n.d. | 3 of 9 (4.21) |
| KLSQSVLYESRNKNSVA | WALTRES | QQYHRLDLS | 1.32 / 1.56 / 1.24 | 1.37 | 3 of 9 (3.83) |
| KSSQLVLYESRNKNSVA | WMSTRES | QQYLRLPLS | 1.99 / 2.12 / 2.54 | 2.22 | 3 of 9 (4.01) |
| ESSQSVKYESRNKNSKA | WASTRES | QQYHRLPLS | n.d. / n.d. / n.d. | n.d. | 1 of 9 (3.25) |
| KSSQSVLYESRNKNGVE | WASTRES | QHYHRLPLS | n.d. / n.d. / n.d. | n.d. | 0 of 9 |
| KSSQSVLYESRNKNSVI | WASTRES | QQYHRLILS | n.d. / 3.81 / n.d. | 3.81 | 1 of 9 (3.83) |
| TSSQSVLRESRNKNSVF | WASTRES | QQYHRLPLS | n.d. / n.d. / n.d. | n.d. | 0 of 9 |
| KSSQSVLYESRNKNSVA | WASTRES | QQYHRAPIS | 1.97 / 2.28 / 1.85 | 2.03 | 5 of 9 (4.73) |
| KSSQSVLYEKYNKNSVA | WASTRES | QQEHRLPLS | 2.45 / 2.75 / 2.60 | 2.60 | 1 of 9 (4.15) |
| KSSQSVLEGSRNKNSVA | WASTRES | QVYHRLPLS | n.d. / n.d. / n.d. | n.d. | 0 of 9 |
| KNSQSVLYESRNKNAVA | WASTRED | QQYHRLPLS | 0.43 / 0.63 / 0.50 | 0.52 | 1 of 9 (3.29) |
| KSSQSVLYNSRNSNSVA | WASTRES | YQYHRLPLS | n.d. / n.d. / n.d. | n.d. | 2 of 9 (4.89) |
| KSSQSVKYESRNKNSVA | WAHTRES | QQRHRLPLS | 2.76 / n.d. / n.d. | 2.76 | 0 of 9 |
| KSSQSVLYESRNKNSVA | WASTRES | PAYHRLPLV | 1.46 / 1.51 / 1.37 | 1.45 | 2 of 9 (3.82) |
| KSSQSVLYESRNKNSVA | WASTRTS | QQYHRLRLI | 2.94 / n.d. / 4.14 | 3.54 | 1 of 9 (3.41) |
| DSSQSVLYESRNKNSVA | WASTRES | QHYHRLPLS | 2.36 / 2.18 / 2.12 | 2.22 | 2 of 9 (3.85) |
| KSSQSVLYEFRNVNSVA | WAPTRES | QQYHRLPLS | n.d. / n.d. / n.d. | n.d. | 3 of 9 (3.90) |

The 6 strongest on average among those seen in every replicate, once more:

| CDR-L1 | CDR-L2 | CDR-L3 | replicates, log10 nM | mean log10 Kd (nM) | signal with controls |
|---|---|---|---|---|---|
| KNSQSVLYESRNKNAVA | WASTRED | QQYHRLPLS | 0.43 / 0.63 / 0.50 | 0.52 | 1 of 9 (3.29) |
| KSSQSVLYPFRNKNSVA | WASTRES | QQYHREPLS | 0.62 / 0.58 / 0.44 | 0.55 | 1 of 9 (4.30) |
| KSSHSVLYESRNKNSVA | WASTREQ | QQYHRLPWS | 0.26 / 0.64 / 1.08 | 0.66 | 1 of 9 (3.07) |
| KTSQSVLYESRNDNSVA | GASTRES | QQYHRLPLS | 0.74 / 0.93 / 0.86 | 0.85 | 5 of 9 (4.33) |
| KSSQSVLYESHNKNSVA | WASTRES | QQYHRLPLS | 0.51 / 0.98 / 1.05 | 0.85 | 0 of 9 |
| RSSQSVLYESRNKNSVA | WASTLAS | QQYHRLPLS | 0.74 / 0.94 / 0.86 | 0.85 | 2 of 9 (5.17) |